Apparent affinities of Ab-14 variants for a coronavirus HR2 peptide

Target: peptide PDVDLGDISGINAS, taken from heptad repeat 2 (HR2) of SARS-CoV-2 spike.

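The library (AAYL50) carries one to three amino acid substitutions per variant, with no insertions or deletions. The assay is AlphaSeq: two haploid yeast populations carry antibody and antigen on their surface. Pairs that bind mate more often; barcode pairs of the diploids are counted by sequencing. The ratio of observed to expected reads was calibrated, replicate by replicate, on BCL2-family standards whose Kd was known from biolayer interferometry. Mating was done three times.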

Parent: Ab-14, a human scFv built as VH, a 15-residue (Gly4Ser)3 linker, VL. Only the CDRs of the light chain vary.
VH: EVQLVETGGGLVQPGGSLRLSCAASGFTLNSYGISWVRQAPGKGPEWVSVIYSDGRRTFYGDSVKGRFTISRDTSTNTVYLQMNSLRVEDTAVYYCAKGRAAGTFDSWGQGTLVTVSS
VL: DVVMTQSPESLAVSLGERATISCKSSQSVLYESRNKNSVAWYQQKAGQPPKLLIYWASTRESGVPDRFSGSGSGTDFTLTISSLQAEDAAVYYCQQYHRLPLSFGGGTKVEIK

The parent's light chain CDRs are KSSQSVLYESRNKNSVA, WASTRES, QQYHRLPLS; each variant's own CDRs replace them letter for letter.
This list gathers variants with a substitution at N35 (VL, numbered from residue 1).
The Kd shown is the geometric mean over detected replicates; a lower Kd is a better binder.
Where no diploid with the target was found in any replicate, the entry reads "nd": below detection, most likely a poor binder, though not proof of it.

Variant KSSQSVLAESRKWNSVA | WASTRES | QQYHRLPLS showed 5.4 nM (3 of 3 replicates). With KSSYSVLYEMRHKNSVA | WASTRES | QQYHRLPLS the result was 460 nM (3 of 3 replicates). With KFSQSVLYESRTKNSVA | WASTRES | QDYHRLPLS the result was 6.1 nM (3 of 3 replicates). Variant KSSQGVLYESRCKNSVA | WASTRES | YQYHRLPLS showed 3.7 µM (1 of 3 replicates). With KVLQSVLYESRIKNSVA | WASTRES | QQYHRLPLS the result was 5.6 nM (3 of 3 replicates). Variant KSSQSVLYESRSKNSVA | WASTRES | QQYHRLMLS showed nd (0 of 3 replicates). Variant KSSQSVLYESRTGNHVA | WASTRES | QQYHRLPLS showed 56 nM (3 of 3 replicates). Variant KSSQSVLYESRGKNSVQ | WASTRES | QWYHRLPLS gave 5.7 µM (1 of 3 replicates).

Variant KSSQSVLYESRAKNSVA | WATTRES | QQYHRLPLS showed 8.3 nM (3 of 3 replicates). Variant KSSQSVLYESRWKNSVA | WASTRES | QVYHRLYLS showed nd (0 of 3 replicates). With KSSQFVLYESRPKNSVA | PASTRES | QQYHRLPLS the result was 78 µM (3 of 3 replicates). Variant KSSQSVLIESRLKNSHA | WASTRES | QQYHRLPLS gave 23 µM (2 of 3 replicates). Variant KSWQAVLYESRVKNSVA | WASTRES | QQYHRLPLS showed 7.7 µM (3 of 3 replicates). Variant KSSQSVLYESRRKNSVA | WASMRES | QQYHRLPLS gave 13 nM (3 of 3 replicates). Variant KSSQSVLYESRDYNSVA | WASTNES | QQYHRLPLS gave 98 µM (3 of 3 replicates). With KSSQSVLYESRDKESVA | WASTRES | QQYHRLPLS the result was 63 nM (3 of 3 replicates).

With KSSQSVLYESRYKNSVA | WASTRES | QQYHRLPLS the result was 31 nM (3 of 3 replicates). For KSSQSVLYCSRFKNSVA | WASTIES | QQYHRLPLS, the assay gave nd (0 of 3 replicates). For KSSQSVLAESRWKNSVA | WASTRES | QLYHRLPLS, the assay gave nd (0 of 3 replicates). With KLSQSVLYENRPKNSVA | WASTRES | QQYHRLPLS the result was 6.8 nM (3 of 3 replicates). Variant KSSQSVLPESRLKNSVA | WASTREE | QQYHRLPLS showed 86 nM (3 of 3 replicates). Variant KSFQSVLPESRHKNSVA | WASTRES | QQYHRLPLS showed 35 nM (3 of 3 replicates). Variant KSSQSVLYTSRVKNSVA | WASTRES | QQYCRLPLS gave 1.7 µM (3 of 3 replicates). Variant KSSQSVLYESVFKNSVA | DASTRES | QQYHRLPLS gave 730 pM (3 of 3 replicates).

Variant KSSQSVLYESRPKNSVA | WASTRES | QQYHRLPLS gave 240 nM (3 of 3 replicates). With KSSQSVLYESRGKNSVA | WASTREY | QQYHRLPLE the result was 17 nM (3 of 3 replicates). With KSSQAVLYESREKNCVA | WASTRES | QQYHRLPLS the result was 590 nM (2 of 3 replicates). With WSSQSVLTESRWKNSVA | WASTRES | QQYHRLPLS the result was 400 nM (3 of 3 replicates). Variant KMSQSVLYESRTKNSVA | WASTRES | QQYHRLPLS gave 1.6 nM (3 of 3 replicates). With KSSQCVLYESRYKNSVA | WHSTRES | QQYHRLPLS the result was nd (0 of 3 replicates). Variant KSSQSVLYESRAKNSVA | WASTREG | QQYHRLPLY gave 10 µM (2 of 3 replicates). Variant KSSQSVLYESRCKNSVA | WASTREY | QQYHRPPLS showed 22 µM (2 of 3 replicates).

With KSSQSVLYESRKKNSVA | WASTRES | QQYHRWPDS the result was 6.2 µM (2 of 3 replicates). With KSSVSVLYESRTKNSVA | WASTRES | QQYHRLPLS the result was 11 nM (3 of 3 replicates). For KSSQSVLYESRRKNSVA | WKSTRES | QQYHRLPLR, the assay gave 4.5 µM (1 of 3 replicates). For KSSQSVLYESRHKNSVA | AASTRES | CQYHRLPLS, the assay gave 1.2 nM (3 of 3 replicates). With SSSQSLLYESRQKNSVA | WASTRES | QQYHRLPLS the result was 9.2 nM (3 of 3 replicates). With KSSQSVLAESRMKNSQA | WASTRES | QQYHRLPLS the result was nd (0 of 3 replicates). Variant ASSQSVLYEKRWKNSVA | WASTRES | QQYHRLPLS gave 1.1 µM (2 of 3 replicates). With KSSQSVLYESRGGNSVT | WASTRES | QQYHRLPLS the result was 4.6 µM (2 of 3 replicates).

With WSSQSVLYESRGKNSVA | WASTRES | EQYHRLPLS the result was 4.6 µM (2 of 3 replicates). For KSSQSVLYESRDKNSVA | WASTRRS | AQYHRLPLS, the assay gave nd (0 of 3 replicates). Variant KSSQSVLYESRKKNSVA | WASTRES | TQYHRLPLS gave 20 µM (3 of 3 replicates). With KSSQSVLYESRTKNIVA | WASTRES | QQYHRLPVS the result was 51 µM (1 of 3 replicates).

For reference, 6 entries of the list once more:

CDR-L1,CDR-L2,CDR-L3,Kd (apparent),detected
KSSQSVLAESRMKNSQA,WASTRES,QQYHRLPLS,nd,0 of 3
KVLQSVLYESRIKNSVA,WASTRES,QQYHRLPLS,5.6 nM,3 of 3
KSSQSVLYESRRKNSVA,WASMRES,QQYHRLPLS,13 nM,3 of 3
KSSQSVLYESRSKNSVA,WASTRES,QQYHRLMLS,nd,0 of 3
KSSQCVLYESRYKNSVA,WHSTRES,QQYHRLPLS,nd,0 of 3
KFSQSVLYESRTKNSVA,WASTRES,QDYHRLPLS,6.1 nM,3 of 3

Background: pairings of library AAYL50 with three empty control strains gave a value in 18% of cases (median 15 µM, 5th percentile 970 nM). Values in that range, when seen in few replicates, are hard to tell from nonspecific mating.
For reference, the parent read 4.4 nM as the reference entry and 48 nM as a member of this library.

Data: MIT Lincoln Laboratory AlphaSeq set, Engelhart et al. 2022, doi:10.1038/s41597-022-01779-4, as distributed in FLAb.